For test [1], the system named is MV4-11. The test can be described thus: Antiproliferative activity against human MV4-11 cells after 48 hrs by CellTiter-Blue assay. Format: functional, cell-based. As to conditions: MV4-11, 48 h.
Test [2] concerns PC-3. The test can be described thus: Antiproliferative activity against human PC3 cells after 48 hrs by CellTiter-Blue assay. Format: functional, cell-based. The settings on record: PC-3, 48 h. (In general: Resazurin is reduced to fluorescent resorufin, in cell work by metabolically active cells.)
For test [3], the system named is Histone deacetylase 6 (Homo sapiens). As to conditions: 0.25 to 2 uM.
For test [4], the system named is HEK293. The test can be described thus: Antiproliferative activity against HEK293 cells after 48 hrs by CellTiter-Blue assay. Format: ADME, cell-based. The settings on record: Homo sapiens, HEK293, 48 h.

pEC50: −log10 of the molar value. Activity calls are given as the source filed them. The rule behind the calls is not given here.

On to `CCCNNC(=O)CCCCCNC(=O)[C@H](Cc1c[nH]c2ccccc12)NC(=O)c1ccc(OC)cc1`, for which, in test [1], the pEC50 is 5.90.

In the case of `CCCNNC(=O)c1ccc(NC(=O)[C@H](Cc2c[nH]c3ccccc23)NC(=O)c2ccc(OC)cc2)cc1`, the pEC50 in test [2] is 6.45; in test [1], 7.46; in test [4] it was 4.96. Moreover, the inhibition entry in test [3] was “Active”.

For the molecule `CCNNC(=O)c1ccc(CNC(=O)[C@H](Cc2c[nH]c3ccccc23)NC(=O)c2ccc(OC)cc2)cc1`, the pEC50 in test [1] is 6.18.

For the molecule `CCCNNC(=O)CCCCCCNC(=O)[C@H](Cc1c[nH]c2ccccc12)NC(=O)c1ccc(OC)cc1`, the pEC50 in test [1] is 6.19.

The molecule `CCCCCNNC(=O)c1ccc(CNC(=O)[C@H](Cc2c[nH]c3ccccc23)NC(=O)c2ccc(OC)cc2)cc1` had a pEC50 in test [1] of 6.25.

`CCCNNC(=O)CCCCCCCNC(=O)[C@H](Cc1c[nH]c2ccccc12)NC(=O)c1ccc(OC)cc1` showed a pEC50 in test [1] of 5.77.

The molecule `CCCCNNC(=O)c1ccc(CNC(=O)[C@H](Cc2c[nH]c3ccccc23)NC(=O)c2ccc(OC)cc2)cc1` gave a pEC50 in test [1] of 6.19.

Usually pEC50 stands for −log10 of the EC50, conventionally taken in molar units. Read a high pEC50 as a low EC50.

The values are drawn from ChEMBL document CHEMBL4020839, “Class I HDAC Inhibitors Display Different Antitumor Mechanism in Leukemia and Prostatic Cancer Cells Depending on Their p53 Status” (J Med Chem, 2018).
